The chains behind the UniProt entries cited, without tags or fusion partners.
UniProt P10275, whole entry Q868H: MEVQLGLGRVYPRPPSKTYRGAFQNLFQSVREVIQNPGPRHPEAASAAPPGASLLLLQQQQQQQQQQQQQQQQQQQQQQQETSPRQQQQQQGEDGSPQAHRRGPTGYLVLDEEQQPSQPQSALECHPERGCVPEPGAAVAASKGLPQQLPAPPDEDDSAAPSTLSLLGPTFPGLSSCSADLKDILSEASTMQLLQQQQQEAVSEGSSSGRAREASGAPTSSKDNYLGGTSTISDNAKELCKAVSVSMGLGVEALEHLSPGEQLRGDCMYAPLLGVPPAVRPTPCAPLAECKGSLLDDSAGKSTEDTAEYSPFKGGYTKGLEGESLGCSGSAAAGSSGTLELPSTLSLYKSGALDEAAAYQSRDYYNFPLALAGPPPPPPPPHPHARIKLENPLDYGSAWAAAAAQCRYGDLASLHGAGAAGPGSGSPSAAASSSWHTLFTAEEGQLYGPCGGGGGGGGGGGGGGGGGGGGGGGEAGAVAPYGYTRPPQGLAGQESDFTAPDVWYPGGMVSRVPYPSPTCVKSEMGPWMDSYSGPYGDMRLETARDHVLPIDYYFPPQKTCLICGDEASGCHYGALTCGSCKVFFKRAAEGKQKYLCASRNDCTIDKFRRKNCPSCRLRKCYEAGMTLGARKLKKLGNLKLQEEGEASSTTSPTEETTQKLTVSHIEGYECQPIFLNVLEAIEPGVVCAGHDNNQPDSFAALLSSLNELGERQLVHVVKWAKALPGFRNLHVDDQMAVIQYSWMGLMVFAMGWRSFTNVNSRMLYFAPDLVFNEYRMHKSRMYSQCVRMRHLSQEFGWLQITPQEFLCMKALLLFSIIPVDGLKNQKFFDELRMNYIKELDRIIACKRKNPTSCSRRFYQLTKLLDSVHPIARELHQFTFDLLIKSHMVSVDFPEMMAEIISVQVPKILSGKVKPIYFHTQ

According to patent US7670613B2, “Androgen modulators” (Pfizer Inc., priority 2004, dated 2010):

How the values were obtained:
[1] = molecular target: T1, androgen receptor (Homo sapiens, UniProt P10275, Q868H); test: AR antagonist cell assay (MDA-MB453-MMTV clone 54-19, luciferase reporter); assay type: cell-based; details: MDA-MB453-MMTV clone 54-19 cells, 100 pM DHT, 17 hr; mean of multiple tests
T1 construct: a human breast tumor cell line expressing androgen receptor; endogenous in cells; host or cells: MDA-MB453-MMTV clone 54-19 (only the MMTV-luciferase reporter was transfected)
Description: The compounds ability to antagonize the effects of androgen on the androgen receptor were determined in a whole cell assay as described immediately below.
Experimental Procedure for AR Antagonist Cell Assay
Cell line: MDA-MB453-MMTV clone 54-19. This cell line is a stable transfected cell line with MDA-MB453 cell background (a human breast tumor cell line expressing androgen receptor). A MMTV minimal promoter containing ARE was first cloned in front of a firefly luciferase reporter gene. Then the cascade was cloned into transfection vector pUV120puro. Electroporation method was used for transfecting MDA-MB-453 cell. Puromycin resistant stable cell line was selected.
Cell Culture Media and Reagents:
Culture medium: DMEM (high glucose, Gibco cat #: 11960-044), 10% FBS, and 1% L-glutamine
Plating medium: DMEM (phenol red free), 10% charcoal treated HyClone serum, 1% L-glutamine
Assay medium: DMEM (phenol red free), 1% charcoal treated HyClone serum, 1% L-glutamine, and 1% penicillin/streptomycin
3× luciferase buffer: 2% beta-mercaptoethanol, 0.6% ATP, 0.0135% luciferine in cell lysis buffer
• 1. […] Add 50 ul/well 3× luciferase buffer, incubate at room temperature for 5 minutes, then count on Luminometer The fold induction over background by 100 pM DHT in the absence of testing compounds is standardized as 100% and experimental result is expressed as percentage of inhibition by testing compounds. […]

[2] = molecular target: T2, hAR (Homo sapiens, UniProt P10275); test: Competitive binding analysis on baculovirus/Sf9 generated hAR extracts with 3H-DHT tracer; details: hAR extract, 1 nM 3H-DHT, one hour at 4° C.; mean of multiple tests; read-out: AR Binding IC50
T2 construct: made in house; host or cells: baculovirus/Sf9 insect cells
Description: The description below describes how the assay was carried out.
Competitive binding analysis was performed on baculovirus/Sf9 generated hAR extracts in the presence or absence of different concentrations of test agent and a fixed concentration of ^3H-dihydrotestosterone (^3H-DHT) as tracer. This binding assay method is a modification of a protocol previously described (Liao S., et. al. J. Steroid Biochem. 20:11-17 1984). Briefly, progressively decreasing concentrations of compounds are incubated in the presence of hAR extract (Chang et al. P.N.A.S. Vol. 89, pp. […], 1992), hydroxylapatite, and 1 nM ^3H-DHT for one hour at 4° C. Subsequently, the binding reactions are washed three times to completely remove excess unbound ^3H-DHT. hAR bound ^3H-DHT levels are determined in the presence of compounds (i.e. competitive binding) and compared to levels bound when no competitor is present (i.e. maximum binding). Compound binding affinity to the hAR is expressed as the concentration of compound at which one half of the maximum binding is inhibited.

“1S,5S)-2-Chloro-4-(5-hydroxy-5-methyl-bicyclo[2.2.1]hept-2-yloxy)-benzonitrile [Example 19]” gave an IC50 [1] of 14 nM and an IC50 [2] of 9 nM.
